# In patent US4871727A, “Anti-inflammatory and antidegenerative compounds isolated from L-681,512” (Merck & Co, Inc., priority 1987, dated 1989):
# Protein sequences, listed by entry. Tags and fused reporters are not part of them. Residues count along the entry.
# UniProt P08246, 30-247 limits assumed: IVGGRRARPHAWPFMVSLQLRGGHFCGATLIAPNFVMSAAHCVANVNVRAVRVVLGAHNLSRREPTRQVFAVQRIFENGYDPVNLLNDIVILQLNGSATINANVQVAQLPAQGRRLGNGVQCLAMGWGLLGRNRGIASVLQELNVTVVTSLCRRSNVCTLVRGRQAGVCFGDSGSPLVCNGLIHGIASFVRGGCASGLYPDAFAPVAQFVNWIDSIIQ
# Biological target: Human Polymorphonuclear Leukocyte Elastase (Homo sapiens, UniProt P08246)
# Assay: Inhibition of human polymorphonuclear leukocyte (PMN) elastase via hydrolysis of N-t-Boc-alanyl-alanyl-prolyl-alanine-p-nitroanilide (two point or "zero time" assay)
# Assay type: biochemical
# Details: 50% inhibition of the enzyme activity 2 minutes after zero time; crude human PMN extract; 0.2 mM Boc-AAPAN, pH 7.5, 410 nm
# Excerpt: It is generally understood that the enzyme of interest is that enzyme against which the inhibitory activity of the fermentation broth samples are being determined and quantified (e.g., PMN elastase). Consequently, all of the remaining wells are charged with the same enzyme of interest. However, several enzymes of interest can be charged to a plurality of wells, and the wells grouped together to facilitate separate identification and assay. When this is done, separate control wells must then also be prepared to correspond to the different enzymes of interest.
# The chromogenic medium is charged to all the wells at substantially the same time and the time of this addition is noted. This is the "zero time" mentioned earlier as it is from that moment that a predetermined time lapse is measured during which sufficient reaction between the fermentation broth samples and the enzyme of interest occurs to enable not only accurate screening of enzyme inhibitory activity, but also the degree of that activity. Naturally, the predetermined time lapse will differ with different enzymes and can be from about 1 minute to about 20 minutes, typically from about 2 minutes to about 10 minutes. […]
# To 1.0 ml of 0.2 mM Boc-AAPAN in a cuvette, 0.01-0.1 ml of DMSO with or without inhibitor was added. […] 0.05 Milliliters of PMN extract was then added and the ΔOD/min at 410 nm was measured and recorded. […]
row,SMILES,ED50
1,CC(=O)O[C@H]1[C@H](O)C2=C(CC[C@@H]3C2(C)C[C@@H](OC(=O)CCCCCCCCCCCCCCCO)[C@H](OS(=O)(=O)O)C3(C)C)C2=CC[C@H](C(C)CCC3(C(C)(C)O)CO3)C21C (some centres unmarked),1.7 µg/mL
2,CC(=O)O[C@H]1[C@H](O)C2=C(CC[C@@H]3C2(C)C[C@@H](OC(=O)CCCCCCCCCCCCCCCO)[C@H](OS(=O)(=O)O)C3(C)C)C2CC[C@H](C(C)CCC3(C(C)(C)O)CO3)C21C (some centres unmarked),1.4 µg/mL
